The target in the assay is HO-1 (rat spleen) (Rattus norvegicus, UniProt P06762). The experiment in a line: HO enzymatic activity, rat spleen microsomal fraction (CO formation from methemalbumin). The class given is biochemical. As to conditions: read-out: IC50 HO-1 (rat spleen/μM), mean ± SD of replicate experiments, tested form: HCl.

Sequences of proteins named here, by UniProt entry; tags and fusion partners are left off.
UniProt P06762, whole entry: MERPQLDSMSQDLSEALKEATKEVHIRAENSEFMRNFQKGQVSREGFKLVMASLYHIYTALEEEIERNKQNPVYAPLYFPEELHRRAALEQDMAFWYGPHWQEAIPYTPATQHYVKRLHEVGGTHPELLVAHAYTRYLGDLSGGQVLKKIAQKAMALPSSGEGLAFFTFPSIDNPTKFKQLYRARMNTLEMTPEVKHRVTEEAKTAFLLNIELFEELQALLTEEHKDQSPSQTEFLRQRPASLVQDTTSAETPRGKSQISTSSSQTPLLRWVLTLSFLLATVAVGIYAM

Molecules are shown by their SMILES. Where only a bound is given, the exact number is not on record here.

As to `Nc1ccccc1SC[C@H]1CO[C@](CCc2ccc(Cl)cc2)(Cn2ccnc2)O1`, the IC50 is over 100 µM.

Values taken from patent publication US20120020915A1, “Compounds and Methods for Treating Cancer and Diseases of the Central Nervous System” (QUEENS UNIVERSITY AT KINGSTON, priority 2007, published 2012).
